{"source": "patent US20090222938A1", "about": "“Therapeutic Target Molecules For The Development of Novel Medicaments for Degenerative Diseases” (Neuroprofile GMBH, priority 2006, published 2009)", "origin": "cited, not measured here", "test_system": "ALS", "settings": "ALS patients, symptomatic therapy; cited from earlier work", "data": [{"smiles": "Nc1nc2ccc(OC(F)(F)F)cc2s1", "note": "[riluzol]", "values": [{"measurement": "extension of the survival life time", "result": 2, "unit": "months"}]}]}
